The text below walks through data of ChEMBL document CHEMBL2203232, “Design and discovery of new (3S,5R)-5-[4-(2-chlorophenyl)-2,2-dimethyl-5-oxopiperazin-1-yl]piperidine-3-carboxamides as potent renin inhibitors” (Bioorg Med Chem Lett, 2012).

Sequences of proteins named here, by UniProt entry; tags and fusion partners are left off. A change or cut given only in a name is not applied to a line headed by its entry.
UniProt P00797: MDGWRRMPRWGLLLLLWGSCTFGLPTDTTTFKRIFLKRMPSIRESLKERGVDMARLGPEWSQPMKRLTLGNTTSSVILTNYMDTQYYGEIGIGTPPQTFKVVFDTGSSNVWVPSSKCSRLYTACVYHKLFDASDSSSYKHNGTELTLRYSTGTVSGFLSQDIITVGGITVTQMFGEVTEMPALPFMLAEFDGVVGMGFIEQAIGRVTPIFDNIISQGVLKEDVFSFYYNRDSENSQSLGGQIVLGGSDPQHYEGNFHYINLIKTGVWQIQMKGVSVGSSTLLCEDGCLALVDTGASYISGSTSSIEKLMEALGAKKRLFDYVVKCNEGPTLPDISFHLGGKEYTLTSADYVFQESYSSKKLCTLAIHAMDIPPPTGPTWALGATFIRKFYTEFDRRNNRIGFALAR

Usually IC50 stands for the point on the concentration scale where inhibition reaches its midpoint.

The assay has as its target Renin (Homo sapiens, UniProt P00797). The experiment in a line: Inhibition of recombinant human renin using Arg-Glu(EDANS)-Ile-His-Pro-Phe-His-Leu-Val-Ile-His-Thr-Lys(DABCYL)-Arg as substrate incubated for 10 mins prior to substrate addition measured after 90 mins by fluorimetric analysis.

Turning to `CC(C)CCNC(=O)[C@@H]1CNC[C@H](N2CC(=O)N(c3ccccc3Cl)CC2(C)C)C1`, the IC50 turned out to be 7.7 nM.
